Measured values as given in US20240270732A1, “RECEPTOR-INTERACTING PROTEIN INHIBITOR, PREPARATION METHOD THEREFOR, AND USE THEREOF” (CHENGDU BIOBEL BIOTECHNOLOGY CO., LTD, priority 2021, published 2024).

Sequences of proteins named here, by UniProt entry; tags and fusion partners are left off.
UniProt Q13546, whole entry: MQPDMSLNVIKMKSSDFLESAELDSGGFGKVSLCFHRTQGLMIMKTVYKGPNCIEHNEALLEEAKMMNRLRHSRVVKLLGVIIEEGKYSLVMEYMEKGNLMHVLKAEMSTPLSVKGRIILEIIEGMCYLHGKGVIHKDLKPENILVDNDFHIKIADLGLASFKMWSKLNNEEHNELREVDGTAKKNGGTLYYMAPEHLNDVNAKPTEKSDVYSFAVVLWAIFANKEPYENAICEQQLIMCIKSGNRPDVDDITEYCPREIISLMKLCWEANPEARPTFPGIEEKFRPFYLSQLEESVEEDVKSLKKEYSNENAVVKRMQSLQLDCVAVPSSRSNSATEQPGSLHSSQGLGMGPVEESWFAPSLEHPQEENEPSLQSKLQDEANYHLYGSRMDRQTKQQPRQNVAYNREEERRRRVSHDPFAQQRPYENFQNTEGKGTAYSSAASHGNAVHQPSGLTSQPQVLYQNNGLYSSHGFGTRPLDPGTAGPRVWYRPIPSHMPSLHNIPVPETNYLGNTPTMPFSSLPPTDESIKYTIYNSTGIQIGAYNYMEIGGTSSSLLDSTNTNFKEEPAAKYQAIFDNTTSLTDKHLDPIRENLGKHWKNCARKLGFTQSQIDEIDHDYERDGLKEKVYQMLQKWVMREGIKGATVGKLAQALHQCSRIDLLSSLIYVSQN

Biological target: human RIP1 kinase (Homo sapiens (Human), UniProt Q13546)
Experiment: Inhibitory activity on RIP1 kinase (ADP-Glo)
Assay type: biochemical
Details: read-out: IC50, inhibitory activity on RIP1 kinase, human RIP kinase 25 nM

SMILES	IC50 [nM]
C[C@H]1Oc2ccc(C#CCN3CCN(CC#Cc4ccc5c(c4)N(C)C(=O)[C@@H](NC(=O)c4ncn(Cc6ccccc6)n4)CO5)CC3)cc2N(C)C(=O)[C@H]1NC(=O)c1ncn(Cc2ccccc2)n1	4.68
[2H]C([2H])([2H])N1C(=O)[C@@H](NC(=O)c2ncn(Cc3ccccc3)n2)[C@@H](C)Oc2ccc(C#CCN3CCN(CC#Cc4ccc5c(c4)N(C([2H])([2H])[2H])C(=O)[C@@H](NC(=O)c4ncn(Cc6ccccc6)n4)[C@@H](C)O5)CC3)cc21	4.36
